Literature values, collected in patent US8436020B2, “Processes for the preparation of piperidinic derivatives and pharmaceutic compositions containing the same” (priority 2004, dated 2013).

The chains behind the UniProt entries cited, without tags or fusion partners. Residues count along the entry.
UniProt P22303, 32-614: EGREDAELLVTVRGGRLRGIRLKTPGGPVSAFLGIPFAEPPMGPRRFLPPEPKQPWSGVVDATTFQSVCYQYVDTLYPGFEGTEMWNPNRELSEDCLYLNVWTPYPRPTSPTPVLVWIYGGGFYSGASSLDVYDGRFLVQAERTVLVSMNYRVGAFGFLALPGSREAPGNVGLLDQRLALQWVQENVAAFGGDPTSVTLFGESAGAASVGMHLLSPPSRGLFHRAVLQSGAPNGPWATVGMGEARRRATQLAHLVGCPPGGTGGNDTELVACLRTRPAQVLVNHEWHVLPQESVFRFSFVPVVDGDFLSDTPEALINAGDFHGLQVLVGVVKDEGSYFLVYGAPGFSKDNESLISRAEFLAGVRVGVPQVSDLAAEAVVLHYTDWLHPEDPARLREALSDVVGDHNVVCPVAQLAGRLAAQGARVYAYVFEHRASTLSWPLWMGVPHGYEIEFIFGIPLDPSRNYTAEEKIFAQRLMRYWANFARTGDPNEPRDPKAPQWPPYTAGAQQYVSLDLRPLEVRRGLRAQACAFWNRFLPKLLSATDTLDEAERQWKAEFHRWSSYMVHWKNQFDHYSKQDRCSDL

Molecular target: AChE (Homo sapiens, UniProt P22303)
Details: cited from earlier work

arisugacine A
IC50: 1 nM

arisugacine B
IC50: 25.8 nM
